Among the data in patent EP4585587A1, “PROPIONIC ACID DERIVATIVE AND USE THEREOF IN MEDICINE” (priority 2022, dated 2024) are IC50 and α4β1/α4β7 values, retold here.

By UniProt entry, the sequences of proteins in these tests, tags left out. Residues count along the entry.
UniProt P13612, whole entry, looked up: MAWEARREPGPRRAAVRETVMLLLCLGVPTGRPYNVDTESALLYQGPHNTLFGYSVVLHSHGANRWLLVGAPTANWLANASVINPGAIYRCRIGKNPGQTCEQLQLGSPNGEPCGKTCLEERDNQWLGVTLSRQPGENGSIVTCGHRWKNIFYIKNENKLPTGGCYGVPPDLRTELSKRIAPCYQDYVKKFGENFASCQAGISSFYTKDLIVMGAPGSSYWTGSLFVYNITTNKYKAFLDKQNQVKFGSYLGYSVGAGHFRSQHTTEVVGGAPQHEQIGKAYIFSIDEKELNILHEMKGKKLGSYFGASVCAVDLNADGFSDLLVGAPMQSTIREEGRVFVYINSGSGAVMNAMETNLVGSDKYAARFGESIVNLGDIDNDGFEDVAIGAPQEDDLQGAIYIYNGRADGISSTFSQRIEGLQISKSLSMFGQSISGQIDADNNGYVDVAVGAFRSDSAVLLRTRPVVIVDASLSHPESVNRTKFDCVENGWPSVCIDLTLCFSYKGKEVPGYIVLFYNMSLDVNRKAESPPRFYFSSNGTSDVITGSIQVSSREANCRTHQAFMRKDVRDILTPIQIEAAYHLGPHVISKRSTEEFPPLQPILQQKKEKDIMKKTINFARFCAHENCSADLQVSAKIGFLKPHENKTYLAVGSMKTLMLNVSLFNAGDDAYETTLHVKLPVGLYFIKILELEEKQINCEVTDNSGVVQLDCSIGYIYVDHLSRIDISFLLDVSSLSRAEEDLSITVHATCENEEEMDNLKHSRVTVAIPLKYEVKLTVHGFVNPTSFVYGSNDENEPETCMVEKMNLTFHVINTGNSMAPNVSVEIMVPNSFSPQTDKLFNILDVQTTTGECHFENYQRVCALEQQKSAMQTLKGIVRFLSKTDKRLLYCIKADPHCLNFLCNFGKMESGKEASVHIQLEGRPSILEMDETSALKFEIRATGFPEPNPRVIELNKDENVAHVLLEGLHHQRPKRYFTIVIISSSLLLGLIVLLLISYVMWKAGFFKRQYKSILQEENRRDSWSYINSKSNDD
UniProt P13612, 34-1032 limits assumed: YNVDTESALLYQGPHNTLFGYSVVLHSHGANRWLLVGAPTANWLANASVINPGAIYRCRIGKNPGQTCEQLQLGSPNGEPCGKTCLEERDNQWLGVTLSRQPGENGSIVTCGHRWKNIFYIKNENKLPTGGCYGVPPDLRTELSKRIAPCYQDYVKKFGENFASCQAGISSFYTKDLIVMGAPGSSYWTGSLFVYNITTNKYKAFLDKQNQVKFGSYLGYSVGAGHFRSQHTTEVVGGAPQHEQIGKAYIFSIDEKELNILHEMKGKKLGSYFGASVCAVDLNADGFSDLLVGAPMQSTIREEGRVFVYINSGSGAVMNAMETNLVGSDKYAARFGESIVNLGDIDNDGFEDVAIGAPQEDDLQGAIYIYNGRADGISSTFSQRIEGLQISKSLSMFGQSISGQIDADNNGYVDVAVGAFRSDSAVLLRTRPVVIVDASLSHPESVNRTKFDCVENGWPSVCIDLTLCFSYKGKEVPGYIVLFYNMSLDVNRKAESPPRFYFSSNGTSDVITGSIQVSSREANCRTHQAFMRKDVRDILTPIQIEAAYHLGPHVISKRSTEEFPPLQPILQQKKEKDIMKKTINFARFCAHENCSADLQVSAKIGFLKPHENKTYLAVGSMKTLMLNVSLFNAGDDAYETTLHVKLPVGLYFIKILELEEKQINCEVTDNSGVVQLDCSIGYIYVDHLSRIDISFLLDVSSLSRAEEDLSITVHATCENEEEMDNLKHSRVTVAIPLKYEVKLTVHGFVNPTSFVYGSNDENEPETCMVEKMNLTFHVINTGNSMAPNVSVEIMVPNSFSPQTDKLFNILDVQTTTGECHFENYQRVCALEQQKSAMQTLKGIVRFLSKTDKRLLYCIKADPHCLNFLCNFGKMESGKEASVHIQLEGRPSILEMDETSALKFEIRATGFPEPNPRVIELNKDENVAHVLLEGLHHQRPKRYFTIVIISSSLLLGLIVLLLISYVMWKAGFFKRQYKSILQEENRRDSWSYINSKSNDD
UniProt P26010, 20-798 limits assumed: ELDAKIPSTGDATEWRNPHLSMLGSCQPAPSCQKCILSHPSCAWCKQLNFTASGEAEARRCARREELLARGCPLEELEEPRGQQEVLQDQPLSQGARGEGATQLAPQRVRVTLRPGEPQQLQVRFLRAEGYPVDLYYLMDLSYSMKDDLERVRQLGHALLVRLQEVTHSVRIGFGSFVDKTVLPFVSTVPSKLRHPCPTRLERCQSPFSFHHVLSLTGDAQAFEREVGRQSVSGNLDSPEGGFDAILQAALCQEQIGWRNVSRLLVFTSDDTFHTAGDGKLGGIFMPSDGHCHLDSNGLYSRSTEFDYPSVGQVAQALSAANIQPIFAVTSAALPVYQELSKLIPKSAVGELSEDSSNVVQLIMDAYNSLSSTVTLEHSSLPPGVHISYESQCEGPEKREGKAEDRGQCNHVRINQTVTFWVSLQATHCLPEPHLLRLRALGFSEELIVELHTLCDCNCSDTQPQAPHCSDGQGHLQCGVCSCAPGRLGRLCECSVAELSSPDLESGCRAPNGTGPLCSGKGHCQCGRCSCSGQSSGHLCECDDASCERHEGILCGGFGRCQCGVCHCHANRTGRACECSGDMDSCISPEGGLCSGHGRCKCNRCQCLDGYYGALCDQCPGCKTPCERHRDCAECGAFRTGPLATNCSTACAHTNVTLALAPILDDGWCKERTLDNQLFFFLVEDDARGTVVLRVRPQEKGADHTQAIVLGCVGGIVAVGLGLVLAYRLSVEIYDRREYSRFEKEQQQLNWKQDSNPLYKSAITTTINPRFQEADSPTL
UniProt P05556, whole entry, looked up: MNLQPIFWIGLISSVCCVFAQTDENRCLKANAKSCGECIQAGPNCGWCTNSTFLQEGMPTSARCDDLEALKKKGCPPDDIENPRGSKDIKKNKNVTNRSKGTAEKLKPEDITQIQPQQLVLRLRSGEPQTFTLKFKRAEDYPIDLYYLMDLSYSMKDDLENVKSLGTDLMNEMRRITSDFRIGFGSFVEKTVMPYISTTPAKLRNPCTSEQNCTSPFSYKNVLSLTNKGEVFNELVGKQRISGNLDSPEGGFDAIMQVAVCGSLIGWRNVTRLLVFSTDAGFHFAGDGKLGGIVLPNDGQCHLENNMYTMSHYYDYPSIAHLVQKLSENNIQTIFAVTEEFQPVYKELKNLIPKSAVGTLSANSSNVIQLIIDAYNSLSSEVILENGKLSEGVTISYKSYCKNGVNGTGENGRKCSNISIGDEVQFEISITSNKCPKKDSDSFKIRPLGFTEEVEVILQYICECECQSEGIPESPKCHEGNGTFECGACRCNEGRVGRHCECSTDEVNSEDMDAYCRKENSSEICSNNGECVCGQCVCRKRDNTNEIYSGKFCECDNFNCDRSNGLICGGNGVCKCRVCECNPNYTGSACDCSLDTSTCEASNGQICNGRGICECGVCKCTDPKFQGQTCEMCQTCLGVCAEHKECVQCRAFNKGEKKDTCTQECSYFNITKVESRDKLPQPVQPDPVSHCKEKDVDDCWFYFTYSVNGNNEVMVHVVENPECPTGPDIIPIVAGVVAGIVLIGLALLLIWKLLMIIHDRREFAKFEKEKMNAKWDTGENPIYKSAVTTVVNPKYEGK

Counter-ions that a name gives are not always drawn. Like-named read-outs stand apart in the source and are kept apart here.

The target in one test is integrin α4β7 (Homo sapiens, UniProt P13612+P26010). Put plainly: Integrin α4β7 cell adhesion assay (RPMI8866 cells on MAdCAM-1).
The next test addresses integrin α4β1 (Homo sapiens, UniProt P05556+P13612). Put plainly: Integrin α4β1-mediated cell adhesion assay (Jurkat cells on VCAM). The settings on record: tested form: TFA; for IC50: read-out: Jurkat (α4β1)/VCAM-1 IC50, Jurkat cells, VCAM coated plate; for α4β1/α4β7: selectivity ratio of Jurkat (α4β1)/VCAM-1 IC50 to RPMI-8866 (α4β7)/MadCAM-1 IC50. The test is classed as cell-based.

Setting [1] is: read-out: RPMI-8866 (α4β7)/MadCAM-1 IC50, MAdCAM-1 coated plate, reported as class symbol, tested form: TFA.
Where [2] appears, read: read-out: RPMI-8866 (α4β7)/MadCAM-1 IC50, MAdCAM-1 coated plate, numeric value or bound, tested form: TFA.

In the case of `Cc1cc(F)cc(C)c1-c1cc(C(CC(=O)O)NC(=O)C(CC(C)C)n2cc(C3CCN(CC4CC4(F)F)CC3)c(C(F)(F)F)cc2=O)cc2c1CCC2` (stereo not drawn), the IC50 on integrin α4β7 (setting [1]) is less than 10 nM. At integrin α4β1, the IC50 was greater than 300 nM and the α4β1/α4β7 is 106.

Take `COc1cc(C)c(-c2cc(C(CC(=O)O)NC(=O)C(CC(C)C)n3cc(CCN(C)C)c(C(F)(F)F)cc3=O)cc3c2CCC3)c(C)c1` (stereo not drawn): the IC50 on integrin α4β7 (setting [2]) is less than 0.5 nM. At integrin α4β1, the IC50 is greater than 100 nM and the α4β1/α4β7 worked out at 1420.

On to `Cc1cc(F)cc(C)c1-c1cc(C(CC(=O)O)NC(=O)C(CC(C)C)n2cc(CC3CN(C(C)C)C3)c(C(F)(F)F)cc2=O)cc2c1CCC2` (stereo not drawn), for which the results for the IC50 on integrin α4β7 (setting [2]) and at integrin α4β1 were less than 0.5 nM and greater than 100 nM, respectively. Further, on integrin α4β1, the α4β1/α4β7 was determined as 454.

As to `CC#Cc1cc(-c2c(C)cccc2C)c(F)c(C(CC(=O)O)NC(=O)C(CC(C)C)n2cc(CCN3CC4CC3CO4)c(C(F)(F)F)cc2=O)c1F` (single isomer, unassigned) [Trifluoroacetate salt of compound 17-2], the IC50 on integrin α4β7 (setting [2]) was less than 1 nM. For the same molecule, at integrin α4β1, the IC50 was greater than 100 nM and the α4β1/α4β7 amounted to 165.

Regarding `CC#Cc1cc(-c2c(C)cccc2C)c(F)c(C(CC(=O)O)NC(=O)C(CC(C)C)n2cc(CCN3CC4CC3CO4)c(C(F)(F)F)cc2=O)c1F` (single isomer, unassigned) [Trifluoroacetate salt of compound 16-2], the IC50 is less than 1 nM at integrin α4β7 (setting [2]) and greater than 200 nM on integrin α4β1. In addition, the α4β1/α4β7 at integrin α4β1 worked out at 308.

Turning to `Cc1cccc(C)c1-c1cc(C(CC(=O)O)NC(=O)C(CC(C)C)n2cc(CCN(C)C)c(C(F)(F)F)cc2=O)cc2c1CCC2` (stereo not drawn), the IC50 at integrin α4β7 (setting [1]) is less than 10 nM; at integrin α4β1, greater than 500 nM. Also, at integrin α4β1, the α4β1/α4β7 was 648.

On to `CCN(CC)CCc1cn(C(CC(C)C)C(=O)NC(CC(=O)O)c2cc3c(c(-c4c(C)cc(F)cc4C)c2)CCC3)c(=O)cc1C(F)(F)F` (stereo not drawn), for which the results for the IC50 on integrin α4β7 (setting [2]) and on integrin α4β1 were less than 0.5 nM and greater than 30 nM, respectively. Further, at integrin α4β1, the α4β1/α4β7 turned out to be 269.

As to `CC#Cc1cc(-c2c(C)cc(OC)cc2C)c(F)c(C(CC(=O)O)NC(=O)C(CC(C)C)n2cc(CCN(C)C)c(C(F)(F)F)cc2=O)c1F` (stereo not drawn), the IC50 was less than 0.5 nM on integrin α4β7 (setting [2]) and greater than 100 nM at integrin α4β1. Also, the α4β1/α4β7 on integrin α4β1 turned out to be 269.
